{"source": "patent US20230398228A1", "about": "“ERIBULIN-BASED ANTIBODY-DRUG CONJUGATES AND METHODS OF USE” (EISAI R&D MANAGEMENT CO., LTD., priority 2016, published 2023)", "test_system": "NCI-H2110 xenograft", "settings": "for tumor volume, group MEAN: MORAb-003-0285 5 mg/kg", "note": "Read-outs that look alike come from different tables or passages of the source.", "data": [{"substance": "MORAb-003-PEG-pAB-duostatin 3 [M-0285]", "values": [{"measurement": "tumor growth inhibition (TGI)", "setting": "5 mg/kg single i.v. dose, day 17 tumor volumes", "value": 89.7, "unit": "%"}, {"measurement": "tumor volume, group MEAN", "setting": "day 0 post randomization", "value": 170.8, "unit": "mm^3"}, {"measurement": "tumor volume, group MEAN", "setting": "day 3 post randomization", "value": 231.2, "unit": "mm^3"}, {"measurement": "tumor volume, group MEAN", "setting": "day 5 post randomization", "value": 145.2, "unit": "mm^3"}, {"measurement": "tumor volume, group MEAN", "setting": "day 6 post randomization", "value": 170.2, "unit": "mm^3"}, {"measurement": "tumor volume, group MEAN", "setting": "day 7 post randomization", "value": 178.6, "unit": "mm^3"}, {"measurement": "tumor volume, group MEAN", "setting": "day 10 post randomization", "value": 140.2, "unit": "mm^3"}, {"measurement": "tumor volume, group MEAN", "setting": "day 12 post randomization", "value": 130, "unit": "mm^3"}, {"measurement": "tumor volume, group MEAN", "setting": "day 14 post randomization", "value": 123.4, "unit": "mm^3"}, {"measurement": "tumor volume, group MEAN", "setting": "day 17 post randomization", "value": 162.6, "unit": "mm^3"}, {"measurement": "tumor volume, group MEAN", "setting": "day 19 post randomization", "value": 212.4, "unit": "mm^3"}, {"measurement": "tumor volume, group MEAN", "setting": "day 24 post randomization", "value": 538.4, "unit": "mm^3"}, {"measurement": "tumor volume, group MEAN", "setting": "day 26 post randomization", "value": 690.8, "unit": "mm^3"}, {"measurement": "tumor volume, group MEAN", "setting": "day 28 post randomization", "value": 842.6, "unit": "mm^3"}, {"measurement": "tumor volume, group MEAN", "setting": "day 31 post randomization", "value": 1173.2, "unit": "mm^3"}]}]}
